Test results from patent publication US20260384443A1, “THIADIAZOLES AS GLUTAMINASE I INHIBITORS” (published 2026).

Sequences of proteins named here, by UniProt entry; tags and fusion partners are left off. Residues count along the entry.
UniProt O94925, 55-669 limits assumed: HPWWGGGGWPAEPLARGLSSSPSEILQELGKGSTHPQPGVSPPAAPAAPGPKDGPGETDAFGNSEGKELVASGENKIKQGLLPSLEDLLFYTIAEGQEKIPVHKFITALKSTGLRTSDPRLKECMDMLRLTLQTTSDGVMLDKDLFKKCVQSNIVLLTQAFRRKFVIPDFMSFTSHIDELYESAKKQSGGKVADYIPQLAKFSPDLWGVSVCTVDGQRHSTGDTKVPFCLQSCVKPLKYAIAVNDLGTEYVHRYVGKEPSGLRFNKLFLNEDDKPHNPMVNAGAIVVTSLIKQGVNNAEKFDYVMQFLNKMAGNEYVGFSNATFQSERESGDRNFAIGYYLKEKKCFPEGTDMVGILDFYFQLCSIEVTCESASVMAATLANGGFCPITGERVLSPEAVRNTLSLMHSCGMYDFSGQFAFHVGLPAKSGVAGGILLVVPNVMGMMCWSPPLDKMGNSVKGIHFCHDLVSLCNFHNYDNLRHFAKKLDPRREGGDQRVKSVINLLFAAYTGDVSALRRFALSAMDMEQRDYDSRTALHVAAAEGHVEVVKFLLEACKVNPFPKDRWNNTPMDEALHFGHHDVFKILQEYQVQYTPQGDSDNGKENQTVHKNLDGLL
UniProt O94925, 73-669 limits assumed: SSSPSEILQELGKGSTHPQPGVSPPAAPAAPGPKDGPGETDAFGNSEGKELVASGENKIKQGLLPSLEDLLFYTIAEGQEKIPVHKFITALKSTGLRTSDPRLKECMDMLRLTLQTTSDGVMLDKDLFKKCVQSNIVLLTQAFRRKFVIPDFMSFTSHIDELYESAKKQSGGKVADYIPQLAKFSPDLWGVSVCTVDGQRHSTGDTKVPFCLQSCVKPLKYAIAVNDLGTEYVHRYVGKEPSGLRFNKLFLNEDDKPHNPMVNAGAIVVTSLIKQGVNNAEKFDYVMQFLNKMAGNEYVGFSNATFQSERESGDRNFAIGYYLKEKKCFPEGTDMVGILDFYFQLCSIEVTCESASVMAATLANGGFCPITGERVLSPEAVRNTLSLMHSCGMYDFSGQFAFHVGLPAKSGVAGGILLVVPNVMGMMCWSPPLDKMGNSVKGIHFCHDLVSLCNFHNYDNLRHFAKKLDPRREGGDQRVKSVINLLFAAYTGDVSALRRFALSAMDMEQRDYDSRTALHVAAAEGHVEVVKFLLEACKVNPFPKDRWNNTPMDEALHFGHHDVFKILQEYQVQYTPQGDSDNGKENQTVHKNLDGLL

What was measured:
GLS1 [1] = target: T1, GLS1 (Homo sapiens, UniProt O94925); assay: GLS1 enzymatic assay (three-stage coupled endpoint assay: GLS1/GDH/diaphorase, resorufin fluorescence); conditions: read-out: Enzyme IC50
GLS1 [2] = target: T1, GLS1; assay: GLS1 cell assay: intracellular glutamate level in A549 cells (Glutamine/Glutamate-Glo); conditions: read-out: Cell IC50, 2 h compound pre-incubation, then 24 h with L-Gln

SMILES	IC50 (GLS1 [1])	IC50 (GLS1 [2])
CC(C)(C)[C@H]1CC[C@H](N2CCOC(CC(=O)Nc3nnc(N[C@@H]4CCN(c5cccnn5)C4)s3)C2)CC1 (stereo partly shown)	64.4 nM	1.3 nM
Cc1ccccc1CN1CCSC(CC(=O)Nc2nnc(N[C@@H]3CCN(c4cccnn4)C3)s2)C1 (stereo partly shown)	18.8 nM	5.6 nM
O=C(CC1CCN(Cc2ccccc2OC2CCC2)CC1)Nc1nnc(N[C@@H]2CCN(c3cccnn3)C2)s1	25.8 nM	35.2 nM
CC(C)Sc1ccccc1CN1CCC2(CCN(CC(=O)Nc3nnc(N[C@@H]4CCN(c5cccnn5)C4)s3)CC2)C1	37.6 nM	10 nM
O=C(CC1CCN(Cc2ccc(C(=O)O)cc2)CC1)Nc1nnc(N[C@@H]2CCN(c3cccnn3)C2)s1	103 nM	10000 nM
CN(C)C(C(=O)Nc1nnc(N[C@@H]2CCN(c3cccnn3)C2)s1)C1CCN(Cc2ccc(OC(F)(F)F)cc2)CC1 (stereo partly shown)	236 nM	40.5 nM
Cc1cc(C)cc(CN2CC3(CCCN(CC(=O)Nc4nnc(N[C@@H]5CCN(c6cccnn6)C5)s4)C3)C2)c1	30.2 nM	6.6 nM
O=C(C[C@@H]1CN(C2CCC3(CCC3)CC2)CCO1)Nc1nnc(N[C@@H]2CCN(c3cccnn3)C2)s1 (single isomer, unassigned) [Example 275]	18.8 nM	2.8 nM
Cc1ccc(CN2CC[C@]3(C2)C[C@H](CC(=O)Nc2nnc(N[C@@H]4CCN(c5cccnn5)C4)s2)C3)c(OC(C)C)c1 (single isomer, unassigned) [Example 193]	20.6 nM	25.4 nM
CC(c1cc(F)cc(F)c1)N1CCC[C@@H](CC(=O)Nc2nnc(N[C@@H]3CCN(c4cccnn4)C3)s2)C1 (stereo partly shown)	32.1 nM	9.8 nM
Cc1ccc([C@H](C)N2CCC[C@@H](CC(=O)Nc3nnc(N[C@@H]4CCN(c5cccnn5)C4)s3)C2)cc1F (single isomer, unassigned) [Example 260]	34.1 nM	12.2 nM
CC(C)OC(=O)c1ccc(CN2CCC(CC(=O)Nc3nnc(N[C@@H]4CCN(c5cccnn5)C4)s3)CC2)cc1	40.2 nM	8 nM
COC(C(=O)Nc1nnc(N[C@@H]2CCN(c3cccnn3)C2)s1)C1CCN(Cc2ccc(OC(F)(F)F)cc2)CC1 (stereo partly shown)	82.5 nM	2.5 nM
CN1CCN(CC2CCC(C)(C)CC2)CC1CC(=O)Nc1nnc(N[C@@H]2CCN(c3cccnn3)C2)s1 (stereo partly shown)	49.4 nM	16.8 nM
Cc1ccc([C@H](C)N2CCC[C@@H](CC(=O)Nc3nnc(N[C@@H]4CCN(c5cccnn5)C4)s3)C2)c(F)c1 (single isomer, unassigned) [Example 264]	22.6 nM	5.1 nM
Cc1cc(CN2CCC[C@@H](CC(=O)Nc3nnc(N[C@@H]4CCN(c5cccnn5)C4)s3)C2)c(C)s1	29.7 nM	23.6 nM
O=C(Nc1nnc(N[C@@H]2CCN(c3cccnn3)C2)s1)C1CC2(CCN(Cc3cccc(OC(F)(F)F)c3)CC2)CO1 (stereo partly shown)	65.3 nM	1.6 nM
O=C(CC1CCC2(CC1)CCN(Cc1ncccc1OC1CCC1)CC2)Nc1nnc(N[C@@H]2CCN(c3cccnn3)C2)s1	28.1 nM	57.9 nM
O=C(CC1CCCCN(Cc2cc(F)cc(F)c2)C1)Nc1nnc(N[C@@H]2CCN(c3cccnn3)C2)s1 (stereo partly shown)	50 nM	6.2 nM
O=C(CC1CCC2(CC1)CCN(Cc1ccc(C(F)(F)F)cn1)CC2)Nc1nnc(N[C@@H]2CCN(c3cccnn3)C2)s1	36.8 nM	9.4 nM
O=C(Nc1nnc(N[C@@H]2CCN(c3cccnn3)C2)s1)C1CC2(CCN(Cc3ccccc3OC3CCC3)CC2)CO1 (stereo partly shown)	53.4 nM	6.4 nM
C[C@@H](C(=O)Nc1nnc(N[C@@H]2CCN(c3cccnn3)C2)s1)C1CCN(Cc2ccc(OC(F)(F)F)cc2)CC1 (single isomer, unassigned) [Example 24]	119 nM	30.6 nM

SMILES	IC50 (GLS1 [1])	IC50 (GLS1 [2])
O=C(Nc1nnc(N[C@@H]2CCN(c3cccnn3)C2)s1)[C@@H]1CCCN(Cc2cccc(OC(F)(F)F)c2)C1	51.2 nM	12 nM
COc1cc(CN2CCC[C@@H](CC(=O)Nc3nnc(N[C@@H]4CCN(c5cccnn5)C4)s3)C2)cc(C)c1F	26.1 nM	14.1 nM
CC(C)Sc1ccc(CN2CCN(CC(=O)Nc3nnc(N[C@@H]4CCN(c5cccnn5)C4)s3)CC2)cc1	45 nM	1.6 nM
CC1(C)CCC(CN2CCCN(CC(=O)Nc3nnc(N[C@@H]4CCN(c5cccnn5)C4)s3)CC2)CC1	71.1 nM	25 nM
O=C(Nc1nnc(N[C@@H]2CCN(c3cccnn3)C2)s1)[C@H]1CCCN(Cc2ccc(OC(F)(F)F)cc2)C1	107 nM	24.8 nM
O=C(C[C@@H]1CCCN(Cc2cc(F)cc(F)c2)C1)Nc1nnc(N[C@H]2CN(c3cccnn3)C[C@@H]2F)s1	19.7 nM	3.4 nM
O=C(C[C@@H]1CN(C2CCC3(CCCC3)CC2)CCO1)Nc1nnc(N[C@@H]2CCN(c3cccnn3)C2)s1 (single isomer, unassigned) [Example 273]	23.2 nM	7.8 nM
Cc1cc(C)nc(CN2CCC3(CCC(CC(=O)Nc4nnc(N[C@@H]5CCN(c6cccnn6)C5)s4)CC3)CC2)c1	39.2 nM	35.7 nM
CCC(C(=O)Nc1nnc(N[C@@H]2CCN(c3cccnn3)C2)s1)C1CCN(Cc2ccccc2OC(C)C)CC1 (stereo partly shown)	69.6 nM	130 nM
CC(C)(C)OC(=O)N1CCC(CN2CCC[C@@H](CC(=O)Nc3nnc(N[C@@H]4CCN(c5ccc(Cl)nn5)C4)s3)C2)CC1	112 nM	152 nM
O=C(CC1CCN(Cc2cccc(OC(F)(F)F)c2)CC1)Nc1nnc(N[C@@H]2CCN(c3cccnn3)C2)s1	73.2 nM	4.1 nM
O=C(C[C@@H]1CCCN(Cc2ccccc2OC2CCC2)C1)Nc1nnc(N[C@@H]2CCN(c3cccnn3)C2)s1	50 nM	51.8 nM
O=C(CC1CCC2(CC1)CCN(Cc1cncc(Cl)c1)CC2)Nc1nnc(N[C@@H]2CCN(c3cccnn3)C2)s1	15.9 nM	5.6 nM
O=C(CC1CCN(Cc2ccc(O)c(OC(F)(F)F)c2)CC1)Nc1nnc(N[C@@H]2CCN(c3cccnn3)C2)s1	63.2 nM	489 nM
CCC1(CC)CCC(N2CCO[C@H](CC(=O)Nc3nnc(N[C@@H]4CCN(c5cccnn5)C4)s3)C2)CC1 (single isomer, unassigned) [Example 148]	10.9 nM	1.6 nM
O=C(Nc1nnc(N[C@@H]2CCN(c3cccnn3)C2)s1)[C@H]1CC2(CCN(Cc3ccccc3OC3CCC3)CC2)CO1 (single isomer, unassigned) [Example 213]	66.9 nM	7.9 nM
O=C(CN1CCN(C2CCC3(CCCC3)CC2)CC1)Nc1nnc(N[C@@H]2CCN(c3cccnn3)C2)s1	32.6 nM	12.4 nM
O=C(Nc1nnc(N[C@@H]2CCN(c3cccnn3)C2)s1)C1CC2(CCN(Cc3cccc(OC(F)F)c3)CC2)CO1 (stereo partly shown)	35.1 nM	3.4 nM
CSc1ccccc1CN1CCCC(OCC(=O)Nc2nnc(N[C@@H]3CCN(c4cccnn4)C3)s2)C1 (stereo partly shown)	69.4 nM	5.8 nM
CC(C)(C)n1cc(CN2CCC(SCC(=O)Nc3nnc(N[C@@H]4CCN(c5cccnn5)C4)s3)CC2)cn1	18.7 nM	47.2 nM
CC(C)COC(=O)c1cc(CN2CCC(CC(=O)Nc3nnc(N[C@@H]4CCN(c5cccnn5)C4)s3)CC2)ccn1	18.1 nM	27.9 nM
CC1(C)CCC(N2CCOC(CC(=O)Nc3nnc(N[C@@H]4CCN(c5cccnn5)C4)s3)C2)CC1 (stereo partly shown)	32.8 nM	7.5 nM
